Antibody variant affinities, Ab-14 light chain, assay B

Values reported by Li et al. 2023, doi:10.1038/s41467-023-39022-2 (FLAb copy).

Antigen: PDVDLGDISGINAS, a 14-residue peptide of the SARS-CoV-2 spike HR2 region.

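The starting antibody came from a phage panning campaign against this peptide. This is the validation round: designs drawn from the data on random variants, tested in the same kind of assay. Their group label is 14L_GP_HC (GP: Gaussian process model; HC: hill climbing; a sequence that several methods proposed may carry one label only). In AlphaSeq, yeast of one mating type display the scFv and yeast of the other type display the target. Pairs that bind mate more often; barcode pairs of the diploids are counted by sequencing. The ratio of observed to expected reads was calibrated, replicate by replicate, on BCL2-family standards whose Kd was known from biolayer interferometry. The assay was run in six technical replicates.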

Parent scFv Ab-14: VH joined to VL by a (GGGGS)3 linker. Changes lie in the light chain CDRs alone.
VH: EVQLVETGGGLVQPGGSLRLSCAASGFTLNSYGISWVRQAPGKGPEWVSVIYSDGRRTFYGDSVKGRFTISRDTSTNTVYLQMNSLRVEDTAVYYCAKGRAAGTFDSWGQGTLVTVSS
VL: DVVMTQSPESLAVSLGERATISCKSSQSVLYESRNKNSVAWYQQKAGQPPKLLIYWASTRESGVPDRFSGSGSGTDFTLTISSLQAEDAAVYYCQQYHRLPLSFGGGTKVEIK

Changes read parent residue, position, new residue, counted from the first residue of the VL shown. Scale: log10 of Kd in nM, estimated from mating counts; low values are strong binders. The mean shown is taken over the replicates in which the pair was detected. "nd" marks a missing value. The strain was present, yet no cells mated with the target were sequenced in that replicate, which points to weak or no binding. A sequence measured in both rounds can read differently, since the two assays cover different ranges. Three control strains display no target. For all light chain designs, 4% of the pairings with them gave a signal, with a median of 2.64 and one signal in twenty below 1.59, so weak values seen in few replicates may be background. The control count says in how many pairings with the empty strains this scFv gave a signal, with their mean in brackets. The authors averaged sequences with at least three values out of six and counted those with two or fewer as poor binders. The parent sequence was in this pool as ten entries: three were never detected, three once, and four in most replicates, with averages from 0.34 to 2.37.

changes | log10 Kd, replicates | log10 Kd (nM), mean | control signals
V29Q+W56G+Q96D+P101T | 0.09 / 0.00 / -0.25 / -0.16 / -0.20 / 0.10 | -0.07 | 2/18 (3.72)
Q27I+V29Y+R34E+N37G+W56E+T59Q | 1.01 / 0.39 / 0.32 / -0.03 / 0.15 / 0.44 | 0.38 | 0/18
K24F+S26A+K36F+W56H+S62D | 0.80 / 0.70 / 0.67 / 0.84 / 0.56 / 0.94 | 0.75 | 2/18 (2.55)
V29F+Y31G+S33Q+W56D | 0.29 / 0.39 / 0.28 / 0.45 / 0.69 / 0.48 | 0.43 | 0/18
S25H+V29W+L30I+W56D | 0.08 / 0.47 / -0.39 / -0.07 / -0.08 / 0.08 | 0.01 | 0/18
Q27A+V29Y+K36E+W56E+S62Q | 0.58 / 1.24 / 0.54 / 0.41 / 0.11 / 0.67 | 0.59 | 1/18 (3.15)
S25L+W56H+T59L+S62D | 0.22 / 0.35 / 0.28 / 0.37 / 0.34 / 0.28 | 0.31 | 1/18 (1.76)
S25Q+L30G+S33W+W56D | 1.27 / 1.61 / 1.06 / 1.41 / 2.02 / 2.38 | 1.62 | 0/18
S25V+N35M+W56D+E61C+S103M | 0.43 / 0.13 / -0.15 / 0.61 / 0.01 / 0.38 | 0.23 | 1/18 (2.18)
S25L+R34V+W56D | 1.05 / 1.68 / 0.85 / 0.55 / 0.80 / 1.19 | 1.02 | 0/18
Q27G+S28V+V29Y+W56G | -0.01 / -0.10 / -0.08 / -0.09 / -0.26 / -0.12 | -0.11 | 0/18
S25L+S26L+N35D+W56H | 0.88 / 0.70 / 0.47 / 0.39 / 0.43 / 0.46 | 0.55 | 3/18 (2.56)
Q27W+R34G+W56H+S62D | 0.78 / 0.39 / 0.72 / 0.81 / 0.28 / 0.37 | 0.56 | 1/18 (2.53)
S25L+S26P+Q27N+V29T+N35Q+W56E | 0.65 / 0.35 / 0.28 / 0.26 / 0.21 / 0.44 | 0.37 | 0/18
Q27D+V29Y+K36T+W56E | 0.92 / 1.07 / 0.66 / 0.90 / 1.29 / 0.81 | 0.94 | 0/18
S26A+S28G+N35V+W56G | 1.87 / 1.31 / 1.02 / 0.91 / 0.95 / 1.52 | 1.26 | 0/18
S25L+S28G+V29W+W56G | 0.02 / -0.37 / -0.16 / -0.03 / -0.14 / 0.07 | -0.10 | 3/18 (2.89)
S26G+S28G+Y31E+W56G+T59Q+E61L | 0.66 / 0.47 / 0.03 / 0.25 / 0.50 / 0.31 | 0.37 | 0/18
S25F+V29W+W56H+S62Q | 0.60 / 0.70 / 0.52 / 0.16 / 0.31 / 1.05 | 0.56 | 0/18
S25E+V29H+W56G | 0.05 / 0.24 / -0.07 / -0.13 / -0.07 / 0.01 | 0.00 | 2/18 (2.88)
Q27W+V29Y+K36E+W56E+S62Q | 1.09 / 0.24 / -0.18 / -0.18 / 0.07 / 0.22 | 0.21 | 0/18
S25T+S26P+S28G+W56G+T59Q | 0.56 / 0.33 / 0.38 / 0.28 / 0.47 / 0.36 | 0.40 | 2/18 (3.69)
Q27I+V29E+L30G+R34M+W56E | 0.38 / 0.42 / 0.23 / 0.13 / 0.39 / 0.64 | 0.36 | 1/18 (2.94)
Q27I+V29H+W56E+S62Q | nd / nd / nd / 1.34 / nd / nd | 1.34 | 0/18
S25F+S28W+V29Y+N35T+W56N | -0.19 / 0.01 / 0.06 / -0.54 / -0.12 / 0.20 | -0.10 | 0/18
S26Q+S38N+W56G+S62D | 0.27 / 0.18 / 0.26 / -0.06 / 0.33 / 0.26 | 0.21 | 1/18 (2.87)
S25Q+V29G+W56M | 0.99 / 1.24 / 0.79 / 0.99 / 1.14 / 1.31 | 1.08 | 0/18
S25M+V29W+W56G+S62N | -0.20 / -0.09 / -0.35 / -0.50 / -0.30 / -0.35 | -0.30 | 1/18 (2.82)
S25Q+S33N+R34V+W56D | 0.44 / 0.54 / 0.49 / 0.34 / 0.67 / 0.47 | 0.49 | 1/18 (2.84)
Q27K+Y31F+W56N+S62M | 0.89 / 0.91 / 0.51 / 0.66 / 0.61 / 1.15 | 0.79 | 2/18 (2.69)
S25L+S26E+V29D+L30N+W56N | -0.32 / -0.21 / -0.63 / -0.50 / -0.30 / -0.19 | -0.36 | 2/18 (2.00)
S25L+Q27F+V29E+Y31F+W56D | 0.28 / -0.32 / -0.42 / -0.39 / 0.06 / 0.00 | -0.13 | 0/18

2 of these entries, quoted again:

{"changes": "Q27I+V29Y+R34E+N37G+W56E+T59Q", "log10 Kd, replicates": "1.01 / 0.39 / 0.32 / -0.03 / 0.15 / 0.44", "log10 Kd (nM), mean": "0.38", "control signals": "0/18"}
{"changes": "S25F+S28W+V29Y+N35T+W56N", "log10 Kd, replicates": "-0.19 / 0.01 / 0.06 / -0.54 / -0.12 / 0.20", "log10 Kd (nM), mean": "-0.10", "control signals": "0/18"}